System: HIV envelope glycoprotein-mediated cell–cell fusion (CD4/CCR5)
Experiment: cells
Settings: Human immunodeficiency virus 1, CCR5, read-out: Fusion assay pIC50 (converted)

SMILES: CCCCN1C(=O)[C@@H]([C@H](O)C2CCCCC2)NC(=O)C12CCN(Cc1ccc(Oc3ccccc3)cc1)CC2 [Compound 4]
- IC50: 7.76 nM
